Earlier results, collected in US20260144817A1, “IN[…] THERAPY IN BCG-EXPOSED PATIENTS” (priority 2022, published 2026).

Conditions: patients; printed 'as high as'

Q: Which toxicity does the source give for “High dose IL-2: high dose interleukin-2 infused after TIL” here?
A: The toxicity was 70-90%.
